The values that follow come from PubChem BioAssay AID504634 (The Scripps Research Institute Molecular Screening Center, 2011).

Sequences of proteins named here, by UniProt entry; tags and fusion partners are left off.
UniProt P47898, whole entry, looked up: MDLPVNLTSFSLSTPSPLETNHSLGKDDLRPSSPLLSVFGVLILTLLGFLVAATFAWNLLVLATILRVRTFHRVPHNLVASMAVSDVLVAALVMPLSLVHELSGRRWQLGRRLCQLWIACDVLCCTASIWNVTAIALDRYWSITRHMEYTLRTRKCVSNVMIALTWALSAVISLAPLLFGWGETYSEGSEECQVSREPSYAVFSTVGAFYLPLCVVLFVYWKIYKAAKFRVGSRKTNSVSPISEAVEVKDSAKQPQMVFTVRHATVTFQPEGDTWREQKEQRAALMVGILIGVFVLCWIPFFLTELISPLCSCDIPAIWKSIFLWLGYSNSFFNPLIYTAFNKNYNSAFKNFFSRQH

The list shows a part of the results, in another mix than the full data. The source made the active and inactive calls. Cut-off read from the data, not from the text of the source: active = inhibition mostly above about 23% (no sharp cut-off); inactive = mostly below about 18%.

Usually inhibition stands for the change of the read-out against control, counted positive when it falls.

This assay concerns the target 5-hydroxytryptamine receptor 5A (Homo sapiens) (UniProt P47898). Kind of assay: HTR5A inverse agonists in luminescence cell assay, primary screen, counter-screen for OPRM1-OPRD1 heterodimer inverse agonist project, full-deck HTS (AID 504634).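 Note: 0% = cells with DMSO and 100% = no-cell wells with DMSO.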 Particulars: HTR5A cell line, inverse agonism, at 9.3 µM, stronger effect = higher value. A general note: A counterscreen serves to expose hits that act by an unwanted route or on another target.
Regarding `C=CCn1c(=O)c2c(nc3n2CCN3c2cccc(Cl)c2C)n(C)c1=O`, the inhibition was inactive: 11.5%.

For `O=C(Cn1cnc2c(NC(=O)OCc3ccccc3)ncnc21)NCCN1CCOCC1`, the inhibition was inactive: -1.71%. In the case of `CC(C)NC(=O)Cn1c(SCC(=O)NC2CCCC2)nc2ccccc21`, the inhibition was inactive: -18.1%. The result for `N=c1n(CCN2CCCC2)c2ccccc2n1CC(O)c1ccc(Cl)c(Cl)c1` (stereo not drawn) reads inactive: -15%; that for `COc1ccc2c(c1)C1(Nc3ccccc3-c3nc4ccccc4n31)C(=O)N2C` (stereo not drawn), inactive: 1.5%; that for `COc1cccc(NC(=O)[C@H](CC(C)C)NC(=O)N2CCn3c2nc2ccccc23)c1`, inactive: -24.6%. Turning to `CC(C)[C@H](NC(=O)N1CCn2c1nc1ccccc12)C(=O)NC1CC1`, the inhibition was inactive: -4.05%.

In the case of `CCc1ccc(S(=O)(=O)N2c3ccc(C)cc3C3CN(C)CCC32)cc1` (stereo not drawn), the inhibition is inactive: 14.6%. The result for `CCc1cccc(C)c1N(C(=O)Cn1c(COC)nc2ccccc21)C(C)COC` (stereo not drawn) reads inactive: -25.1%; that for `O=[N+]([O-])c1ccc2c(c1)nc1n2CCN(c2ccccc2)C1`, inactive: 1.94%; that for `O=C(c1ccccc1)N1CCn2c(nc3ccccc32)C1`, inactive: -16.1%. For `Cc1nc2ccccc2n1CC(=O)N/N=C\c1ccccn1`, the inhibition is inactive: -24.9%. `CC(C)NC(=O)Cn1c(SCC(=O)N2CCCc3ccccc32)nc2ccccc21`: the inhibition was inactive: -34.4%. With `Cc1ccc(NC(=O)CCC(=O)N/N=C/C=C/c2ccccc2)cc1`, the inhibition is inactive: 10.7%.

Take `Cc1nc2ccccc2n1CC(=O)NN`: the inhibition was inactive: -3.39%. Turning to `O=C(Cn1cnc2c(NC(=O)OCc3ccccc3)ncnc21)NCc1ccccn1`, the inhibition is inactive: 9.12%. Turning to `CCc1ccc(NC(=O)Cn2c(SC)nc3ccccc32)cc1`, the inhibition was inactive: -7.38%. Consider `CCC(C)N(CC(C)C)C(=S)SC(NC(C)=O)C(Cl)(Cl)Cl` (stereo not drawn), for which the inhibition is inactive: 3.64%. With `CC1CC(C)CN(C(=O)Cn2c(SCC(=O)N3CCc4ccccc4C3)nc3ccccc32)C1` (stereo not drawn), the inhibition is inactive: 6.54%. `CCN1C(=O)C2(Nc3ccccc3-c3nc4ccccc4n32)c2cc(OC)ccc21` (stereo not drawn): the inhibition was inactive: 20.4%.

As for `COc1ccc(N2C(=O)CC(n3cnc4ccccc43)C2=O)cc1` (stereo not drawn), the inhibition is inactive: -4.06%.

For `COc1ccccc1NC(=O)Cn1cnc2c1c(=O)n(C)c(=O)n2C`, the inhibition was inactive: -19.8%.

Take `Cc1ccc2c(c1)[C@@H]1CN(C)CC[C@@H]1N2C(=O)Nc1cccc(C(F)(F)F)c1`: the inhibition was inactive: 2.57%. Take `CCOC(=O)c1ccccc1NC(=O)CSc1nc2ccccc2n1CC(=O)N1CCCC1`: the inhibition was inactive: -19.3%.

As to `CSc1nc2ccccc2n1CC(=O)Nc1ccccc1`, the inhibition was inactive: -3.57%. On to `Cc1nc2ccccc2n1CCN1CCOCC1`, for which the inhibition is inactive: -1.08%.

`Cc1ccc2c(c1)C1CN(C)CCC1N2C(=O)Cc1cccs1` (stereo not drawn): the inhibition is inactive: -24.2%. `CN1C(=O)C2(Nc3ccccc3-c3nc4ccccc4n32)c2ccccc21` (stereo not drawn): the inhibition was inactive: 18.2%. With `CCC(C)[C@H](NC(=O)N1CCn2c1nc1ccccc12)C(=O)NCc1ccccc1` (stereo partly drawn), the inhibition was inactive: -2.64%. As for `Cc1ccc(NC(=O)Cn2cnc3ccccc32)cc1C`, the inhibition is inactive: 9.08%.

Take `CCN(CC)C(=O)Cn1c(=O)n(Cc2ccccc2Cl)c2c1c(=O)n(C)c(=O)n2C`: the inhibition is inactive: 1.65%. On to `CCN(CC)CCn1c(NC(=O)c2ccc(C(F)(F)F)cc2)nc2ccccc21`, for which the inhibition was inactive: -7.18%. For the molecule `Cn1c(=O)c2c(nc(CN3CCOCC3)n2CCN2CCOCC2)n(C)c1=O`, the inhibition was inactive: 6.73%.

Consider `O=S(=O)(Nc1ccc2c(c1)nc1n2CCN(Cc2ccccc2)C1)c1ccc(F)cc1`, for which the inhibition is inactive: -11.2%. On to `CC1Cc2ccccc2N1C(=O)Cn1cnc2ccccc21` (stereo not drawn), for which the inhibition is inactive: -43.7%.

As to `C[C@H](O)[C@@H]1C(=O)N2CCc3ccc(N4CCN(C)CC4)cc3[C@@H]2C[C@@H]1N(C)C(=O)c1ccc(C#N)cc1`, the inhibition was inactive: 0.51%.

Turning to `CSc1nc(N)nc2c1ncn2CC(=O)N1CCN(Cc2c(C)cc(C)cc2C)CC1`, the inhibition was inactive: -32.2%.

Consider `COc1cccc(CNc2nc3ccccc3n2CCN2CCCCC2)c1OC`, for which the inhibition is inactive: -29.5%. Take `CCC(C)[C@H](NC(=O)N1CCn2c1nc1ccccc12)C(=O)NCC1CCCO1` (stereo partly drawn): the inhibition was inactive: 14.7%. The same measure for `O=C(OC1CN2CCC1CC2)c1cccc([N+](=O)[O-])c1` (stereo not drawn): inactive: -0.07%; for `CCCCOc1ccccc1NC(=O)Cn1c(-c2nonc2N)nc2ccccc21`: inactive: -13.1%; for `CCc1cccc(C)c1N(C(=O)Cn1c(=O)[nH]c2ccccc21)C(C)COC` (stereo not drawn): inactive: -6.53%.

For the molecule `COc1ccc(CCNC(=O)[C@H](CC(C)C)NC(=O)N2CCn3c2nc2ccccc23)cc1OC`, the inhibition is inactive: -15.1%. For the molecule `O=C(c1ccccc1Cl)N1CCn2c1nc1ccccc12`, the inhibition is inactive: 9.77%.

As for `CCC(NC(=O)Cn1cnc2c(=O)n(C)c(=O)n(C)c21)c1ccccc1` (stereo not drawn), the inhibition was inactive: 5.18%. Take `O=C1Cn2c(nc3ccccc32)-c2ccccc2N1`: the inhibition was inactive: 11.1%.

Regarding `CCN(CC)C(=O)Cn1cnc2c1c(=O)n(C)c(=O)n2C`, the inhibition was inactive: -0.88%. On to `CC(C)N(C(=O)Cn1c(Cl)nc2ccccc21)C(C)C`, for which the inhibition was inactive: 3.75%. Take `CCOC(=O)c1ccc(NC(=O)C(C)(CCl)SC)cc1` (stereo not drawn): the inhibition is inactive: -10.7%.

As for `Cc1ccc2c(c1)C1C[N+](C)(CC(=O)c3ccc(Cl)cc3Cl)CCC1N2C(=O)c1ccc(F)cc1` (stereo not drawn), the inhibition was inactive: -14.5%.

With `O=C(Cn1c(-c2cscn2)nc2ccccc21)Nc1cc(F)ccc1F`, the inhibition was inactive: -3.52%. As to `Cc1ccc2c(c1)C1CN(C)CCC1N2C(=O)COc1ccc(S(=O)(=O)N2CCOCC2)cc1` (stereo not drawn), the inhibition was inactive: 17%. With `Cc1ccc(SCc2nc3ccccc3n2CC(=O)Nc2ccc(Cl)cc2)cc1`, the inhibition is inactive: 8.82%.

As for `CN1CCC2(CC1)Nc1nc(SCc3ccc(Cl)cc3)nn1C1=C2CN(C)CC1`, the inhibition was inactive: -8.06%. With `Cc1ccc2c(c1)C1CN(C)CCC1N2C(=S)Nc1cccnc1` (stereo not drawn), the inhibition was inactive: 0.16%. Take `N#CCC(=O)N/N=C\c1ccc(OC/C=C/c2ccccc2)cc1`: the inhibition was inactive: 0.77%. Turning to `FC(F)(F)c1cccc(-n2nnnc2C2(N3CCOCC3)CCCCC2)c1`, the inhibition was inactive: 0.76%. For the molecule `CCOCCn1c(=O)c2c(nc3n2CCN3c2ccc(CC)cc2)n(C)c1=O`, the inhibition was inactive: -1.36%.
